Test results taken from ChEMBL document CHEMBL1136776, “Aromatic reduced amide bond peptidomimetics as selective inhibitors of neuronal nitric oxide synthase” (J Med Chem, 2003).

The chains behind the UniProt entries cited, without tags or fusion partners.
UniProt P29476, whole entry: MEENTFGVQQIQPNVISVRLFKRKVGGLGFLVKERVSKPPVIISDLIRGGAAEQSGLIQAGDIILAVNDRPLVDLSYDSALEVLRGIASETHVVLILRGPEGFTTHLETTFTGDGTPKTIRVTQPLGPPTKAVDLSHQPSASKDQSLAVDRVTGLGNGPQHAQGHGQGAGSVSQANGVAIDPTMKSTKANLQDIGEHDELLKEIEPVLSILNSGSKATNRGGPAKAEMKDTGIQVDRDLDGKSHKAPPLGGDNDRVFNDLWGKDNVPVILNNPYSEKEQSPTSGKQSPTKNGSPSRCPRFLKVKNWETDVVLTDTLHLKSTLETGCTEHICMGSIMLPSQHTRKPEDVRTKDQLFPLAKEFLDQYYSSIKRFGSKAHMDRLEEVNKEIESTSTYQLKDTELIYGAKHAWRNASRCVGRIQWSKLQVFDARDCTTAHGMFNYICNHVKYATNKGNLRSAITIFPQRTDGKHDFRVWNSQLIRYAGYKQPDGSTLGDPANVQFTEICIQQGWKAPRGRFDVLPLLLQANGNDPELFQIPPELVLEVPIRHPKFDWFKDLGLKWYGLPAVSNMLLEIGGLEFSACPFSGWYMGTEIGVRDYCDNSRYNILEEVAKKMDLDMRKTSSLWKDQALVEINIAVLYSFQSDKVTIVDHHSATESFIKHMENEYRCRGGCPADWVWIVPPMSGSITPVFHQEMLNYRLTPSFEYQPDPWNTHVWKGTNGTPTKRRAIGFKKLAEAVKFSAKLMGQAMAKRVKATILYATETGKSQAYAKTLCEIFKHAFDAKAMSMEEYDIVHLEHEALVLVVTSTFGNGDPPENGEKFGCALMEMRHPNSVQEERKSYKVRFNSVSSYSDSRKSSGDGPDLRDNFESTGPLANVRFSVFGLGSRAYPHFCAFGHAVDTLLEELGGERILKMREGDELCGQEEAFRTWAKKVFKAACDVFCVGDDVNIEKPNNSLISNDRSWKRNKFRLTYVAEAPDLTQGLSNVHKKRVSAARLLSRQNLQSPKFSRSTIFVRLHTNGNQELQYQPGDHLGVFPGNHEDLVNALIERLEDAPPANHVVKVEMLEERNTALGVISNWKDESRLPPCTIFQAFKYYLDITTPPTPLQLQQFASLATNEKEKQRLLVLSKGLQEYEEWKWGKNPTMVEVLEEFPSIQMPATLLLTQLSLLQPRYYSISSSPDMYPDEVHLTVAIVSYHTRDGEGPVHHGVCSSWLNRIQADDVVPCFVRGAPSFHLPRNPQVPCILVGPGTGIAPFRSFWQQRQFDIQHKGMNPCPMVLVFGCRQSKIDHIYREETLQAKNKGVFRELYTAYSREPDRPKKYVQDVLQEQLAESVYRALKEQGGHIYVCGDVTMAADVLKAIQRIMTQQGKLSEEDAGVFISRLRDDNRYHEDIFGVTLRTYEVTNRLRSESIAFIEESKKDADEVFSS

Key:
[1] = Selectivity ratio of Ki value of iNOS to nNOS
[2] = Selectivity ratio of Ki value of eNOS to nNOS
[3] = target: Nitric oxide synthase 1 (Rattus norvegicus, UniProt P29476)

Row | SMILES | Selectivity [1] | Selectivity [2] | Ki [3]
1 | N/C(=N\CCC[C@H](N)CNCc1ccccc1N)N[N+](=O)[O-] | 4.25 | 4.24 | –
2 | N=C(NCCC[C@H](N)CNCCc1ccncc1)N[N+](=O)[O-] | – | – | 760 nM
3 | N/C(=N\CCC[C@H](N)CNCc1ccc(N)cc1)N[N+](=O)[O-] | 204 | 189 | –
4 | NCCc1cccc(NC[C@@H](N)CCC/N=C(\N)N[N+](=O)[O-])c1 | 118 | 45.2 | –
5 | N=C(NCCC[C@H](N)CNCCc1ccccn1)N[N+](=O)[O-] | – | – | 2210 nM
